Hits are enriched below; roughly 0.34% of the tested compounds scored in any of these assays.
Vif-A3F inh = inhibitors of Vif-A3F interaction; HeLa A3F-eYFP + Vif (tagged APOBEC3F with the HIV-1 protein that degrades it), YFP fluorescence increase; AID 602313; actives 0.2% (n = 390,000); Potency, µM (top dose mostly 46.1 µM); note: nearly all actives have a fitted effect of over 65% in size
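Fluorescence increase (Ex 488/Em 500-530) after overnight compound treatment at 37 deg C flags inhibition of Vif-driven A3F-eYFP loss in stable HeLa A3F-eYFP/Vif cells seeded overnight beforehand.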
miR-21 reporter = raises the signal of a miR-21 reporter | HeLa miR-21 FLuc reporter, luciferase, 48 h | Potency, µM (doses to about 38.3 µM) | 340,000 tested, under 10 active | AID 2288; active = well fitted rising curve with a large enough effect; inconclusive = small, poorly fitted or top-dose-only effect; inactive = no such curve, though single readings can be large or run the other way;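 also: miR-21 action dims this reporter so a rising signal means less miR-21 action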
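Using DMEM plus 10% FBS, HeLa miR-21-FLuc cells are incubated with test compounds (final up to about 40uM) for 48 hours; firefly luciferase signal is then imaged following reagent-mediated lysis.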
Epigenetic derep = epigenetic control regulation, reporter derepression; Potency, µM (titrated, usually from 53.9 µM), most hits filed as activators; actives 0.2% (n = 280,000); murine LDR cells, GFP reporter derepression, 30 h; note: nearly all actives have a fitted effect of over 60% in size
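Derepression of a silenced CMV-GFP reporter in murine LDR cells is scored by enumerating GFP-positive cells with a laser-scanning microplate cytometer after 30 hours of treatment at 37 C.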
Vif-APOBEC3G blk = inhibitors of Vif-APOBEC3G interaction | AID 602310 | Potency, µM (series often up to 46.1 µM), usual class: inhibitors | actives 0.076% (n = 410,000) | HeLa A3G-eYFP + Vif (tagged APOBEC3G with the HIV-1 protein that degrades it), YFP fluorescence, overnight | Q9HC16; note: nearly all actives have a fitted effect of over 60% in size
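HeLa cells stably expressing Vif and C-terminally eYFP-tagged A3G, seeded overnight at 37 deg C, then exposed to compound by pintool overnight at 37 deg C. Rise in yellow fluorescence (Ex 488/Em 500-530, Acumen) marks blocked Vif-driven A3G degradation.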
Large screens that a line does not name were inactive; ! = a repeat was not active. Unless noted, calls come from the whole dose curve; as a rule, active = well fitted curve in the direction sought with a large enough effect; inconclusive = small, poorly fitted or top-dose-only effect, or another doubt; inactive = no such curve, though single readings can be large; an effect the other way counts as inactive or inconclusive.

O=C(CN1c2cccc3cccc(c23)S1(=O)=O)Nc1ccc(S(=O)(=O)N2CCOCC2)cc1	Vif-A3F inh 22µM
O=C(N/N=C/c1ccccn1)c1sc2ccccc2c1Cl	Epigenetic derep inconclusive
O=C(N/N=C/c1ccc([N+](=O)[O-])o1)c1sc2ccccc2c1Cl	Vif-A3F inh 8.9µM, Vif-APOBEC3G blk inconclusive
CC(C)OC(=O)c1c(NC(=O)c2cc3nc(-c4ccccc4)cc(C(F)(F)F)n3n2)sc2c1CCCC2	none
CC(C)(C)c1ccc(NC(=O)COC(=O)c2ccccc2OCC(=O)Nc2ccc(Br)cc2)cc1	none (no result: Vif-A3F inh, miR-21 reporter, Epigenetic derep)
CC(=O)N1CCOc2cc(S(=O)(=O)Nc3cccc(C(F)(F)F)c3)c(Cl)cc21	none
Cc1ccc(-c2nc(-c3cc4cccc(OCc5cccc(F)c5)c4oc3=O)no2)cc1	Vif-A3F inh 8.9µM, Epigenetic derep inconclusive
Nc1c(N(CCC2=CCCCC2)C(=O)c2ccc([N+](=O)[O-])o2)c(=O)[nH]c(=O)n1Cc1ccccc1	Vif-A3F inh 22µM (no result: miR-21 reporter, Epigenetic derep)
CC(=O)C[C@H]1c2cc(F)cc(F)c2S(=O)(=O)N1C1CCN(Cc2ccccc2)CC1	none (no result: Vif-A3F inh, miR-21 reporter, Epigenetic derep)
Nc1[nH]c2cc([N+](=O)[O-])ccc2c1-c1ccccn1	Vif-A3F inh 10µM, Vif-APOBEC3G blk inconclusive (no result: Epigenetic derep)
COc1ccc(-c2cc(C(F)(F)F)c(C#N)c(SCC(=O)Nc3ccccc3F)n2)cc1	none
Cc1cccc(NC(=O)CSc2nc(-c3cccs3)cc(C(F)(F)F)c2C#N)c1	Epigenetic derep 14µM
CCOC(=O)c1ccc(NC(=O)CSc2nc(-c3cccs3)cc(C(F)(F)F)c2C#N)cc1	Vif-A3F inh 4µM, Epigenetic derep 10µM, Vif-APOBEC3G blk inconclusive
COc1ccc(-c2cc(C(F)(F)F)c(C#N)c(SCC(=O)Nc3ccccc3C#N)n2)cc1	Epigenetic derep 7.9µM (no result: Vif-A3F inh)
COc1ccc(NC(=O)CSc2nc(-c3cccs3)cc(C(F)(F)F)c2C#N)cc1	Vif-A3F inh inconclusive, Epigenetic derep inconclusive
CCOC(=O)c1ccc(NC(=O)CSc2nc(-c3ccc(OC)cc3)cc(C(F)(F)F)c2C#N)cc1	Vif-A3F inh 25µM, Epigenetic derep inconclusive, Vif-APOBEC3G blk inconclusive
COc1ccc(-c2cc(C(F)(F)F)c(C#N)c(SCC(=O)Nc3cccc(C)c3)n2)cc1	none
CCc1ccc(NCc2cc3ccc(OC)cc3n(CC(=O)Nc3ccccc3C)c2=O)cc1	none
O=C(CSc1nc(-c2ccc(F)cc2)cc(C(F)(F)F)n1)NCCc1ccccc1	none
CC1CCN(Cc2c(O)ccc3c(=O)c(Oc4ccccc4Cl)c(C(F)(F)F)oc23)CC1	none
COc1ccc(OC)c2c(C)ccnc12	none (no result: Vif-A3F inh, miR-21 reporter, Epigenetic derep)
CC(C)c1cc(=O)oc2c3c4c(cc12)CCCN4CCC3	Vif-A3F inh inconclusive, Vif-APOBEC3G blk inconclusive
O=c1oc2c3c4c(cc2c(C(F)(F)F)c1CCN1CCOCC1)CCCN4CCC3	Vif-A3F inh 7.9µM, Epigenetic derep inconclusive, Vif-APOBEC3G blk inconclusive
CC(=O)N1CCc2cc(S(=O)(=O)NC(Cc3ccccc3)C(=O)Nc3ccc(Cl)cc3)ccc21 (stereo not given)	Epigenetic derep inconclusive
COc1cc(-c2noc(C)c2-c2ccc3[nH]ccc3c2)cc(OC)c1OC	Vif-APOBEC3G blk 14µM! (no result: Epigenetic derep)
CC(C)N1CCc2c(sc(NC(=O)c3ccc(S(=O)(=O)N(C)C4CCCCC4)cc3)c2C(N)=O)C1	Vif-A3F inh inconclusive, Epigenetic derep inconclusive, Vif-APOBEC3G blk inconclusive
CNC(=O)c1c(NC(=O)c2ccc(S(=O)(=O)N(C)c3ccccc3)cc2)sc2c1CCN(C(C)C)C2	Vif-A3F inh 7.1µM, Vif-APOBEC3G blk inconclusive (no result: Epigenetic derep)
CC(C)N1CCc2c(sc(NC(=O)c3ccc(S(=O)(=O)N4CCc5ccccc54)cc3)c2C(N)=O)C1	Vif-A3F inh 6.3µM, Epigenetic derep inconclusive, Vif-APOBEC3G blk 20µM
CC(C)N1CCc2c(sc(NC(=O)c3cc(-c4cccs4)nc4ccccc34)c2C(N)=O)C1	Vif-A3F inh inconclusive, Epigenetic derep 18µM, Vif-APOBEC3G blk 7.1µM
CCN1CCc2c(sc(NC(=O)c3ccc(S(=O)(=O)N(C)c4ccccc4)cc3)c2C(=O)NC)C1	Vif-A3F inh 11µM, Vif-APOBEC3G blk inconclusive (no result: Epigenetic derep)
CCN1CCc2c(sc(NC(=O)c3ccc(S(=O)(=O)N(CCOC)CCOC)cc3)c2C(N)=O)C1	none
CCc1ccc(NC(=O)CC2C(=O)N(c3ccc(Cl)cc3)C(=O)N2Cc2ccco2)cc1 (stereo not given)	none
Cc1ccc(CN2C(=O)c3ccccc3CC2(C)C(=O)NC2CCCCC2)cc1 (stereo not given)	none (no result: Vif-A3F inh, Vif-APOBEC3G blk)
CC(C)N1CCc2c(sc(NC(=O)c3ccc(S(=O)(=O)N4CCOCC4)cc3)c2C#N)C1	Vif-A3F inh 13µM
CCOC(=O)N1CCc2c(sc(NC(=O)c3ccc(S(=O)(=O)N4CCCC4)cc3)c2C#N)C1	Vif-A3F inh inconclusive
COC(=O)c1c(-c2ccccc2Cl)noc1/C=C/N(C)C	Vif-A3F inh inconclusive, Epigenetic derep 22µM, Vif-APOBEC3G blk inconclusive
CC(C)(C)n1ncc2c(=O)n(Cc3ccccc3C#N)cnc21	none (no result: Vif-A3F inh, miR-21 reporter, Epigenetic derep)
N#C/C(=C/c1ccc(N2CCCCC2)o1)c1cccc(F)c1	Vif-A3F inh 10µM, Epigenetic derep 6.3µM, Vif-APOBEC3G blk inconclusive
N#C/C(=C/c1ccc(N2CCCCC2)cc1)c1cccc(F)c1	none
N#C/C(=C/c1ccc(N2CCCCCC2)o1)c1ccc(Cl)cc1	Vif-A3F inh inconclusive, miR-21 reporter inconclusive, Epigenetic derep 7.1µM, Vif-APOBEC3G blk inconclusive
Cc1ccc(/C(C#N)=C\c2ccc(N3CCOCC3)o2)cc1	Vif-A3F inh inconclusive, Epigenetic derep inconclusive, Vif-APOBEC3G blk inconclusive
Cc1cccc(-c2nc(SCCCOc3ccccc3Cl)n3[nH]c(=O)cc3n2)c1	none
CCOC(=O)c1c(CN(CC)CC)n(-c2ccccc2)c2ccc(O)cc12	Vif-APOBEC3G blk 13µM (no result: Epigenetic derep)
CCOC(=O)c1c(C)n(-c2ccccc2)c2ccc(O)cc12	none
COc1cccc(Cn2nc3c4cc(F)ccc4n(Cc4ccc(F)cc4)cc-3c2=O)c1	Vif-A3F inh inconclusive (no result: Epigenetic derep)
COc1cc2c3nnc(-c4ccc(F)cc4)c-3cn(Cc3cccc(F)c3)c2cc1OC	Vif-A3F inh 6.3µM, Epigenetic derep 7.1µM, Vif-APOBEC3G blk 7.9µM
COc1cc2c3nnc(-c4ccccc4)c-3cn(Cc3ccc(F)cc3)c2cc1OC	Vif-A3F inh inconclusive, Epigenetic derep inconclusive, Vif-APOBEC3G blk inconclusive
COc1cc2c3nnc(-c4ccc(F)cc4)c-3cn(Cc3cccc(C)c3)c2cc1OC	Vif-A3F inh inconclusive, Epigenetic derep 3.5µM
COc1cc2c3nnc(-c4ccc(F)cc4)c-3cn(Cc3ccc(C)cc3)c2cc1OC	Epigenetic derep 6.3µM, Vif-APOBEC3G blk inconclusive
O=C(Nc1ccc2nc(SCC(=O)N3CCCC3)sc2c1)c1cccc(Br)c1	miR-21 reporter inconclusive
COc1ccccc1NS(=O)(=O)c1cc([N+](=O)[O-])ccc1N/N=C/c1c[nH]c2ccccc12	Vif-A3F inh 11µM, Epigenetic derep inconclusive, Vif-APOBEC3G blk 11µM
COc1ccc(NS(=O)(=O)c2cc([N+](=O)[O-])ccc2N/N=C\c2c(C)[nH]c3ccccc23)cc1	Vif-A3F inh inconclusive, Epigenetic derep 10µM
O=[N+]([O-])c1ccc(N/N=C/c2c[nH]c3ccccc23)cc1	Vif-A3F inh 13µM, Epigenetic derep 14µM, Vif-APOBEC3G blk 7.9µM
